Test results: paper PMC12142581
Several values for one entry are separate records, joined by “and”; a condition that tells them apart may be missing. Equal values may be shown once. Read-outs that look alike come from different tables or passages of the source.

By UniProt entry, the sequences of proteins in these tests, tags left out.
UniProt P08485, whole entry, looked up: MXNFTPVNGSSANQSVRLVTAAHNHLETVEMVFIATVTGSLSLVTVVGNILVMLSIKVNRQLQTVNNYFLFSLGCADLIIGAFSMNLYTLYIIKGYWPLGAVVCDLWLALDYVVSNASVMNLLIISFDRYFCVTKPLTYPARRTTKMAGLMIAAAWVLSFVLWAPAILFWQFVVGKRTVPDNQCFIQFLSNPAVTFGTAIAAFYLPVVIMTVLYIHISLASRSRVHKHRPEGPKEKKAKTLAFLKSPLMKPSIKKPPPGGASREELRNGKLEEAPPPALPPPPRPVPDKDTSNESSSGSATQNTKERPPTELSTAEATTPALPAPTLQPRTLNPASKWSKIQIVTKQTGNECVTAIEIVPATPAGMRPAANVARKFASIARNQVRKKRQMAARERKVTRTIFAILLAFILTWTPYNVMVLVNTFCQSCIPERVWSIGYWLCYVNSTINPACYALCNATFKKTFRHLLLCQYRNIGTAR
UniProt P08173, whole entry, looked up: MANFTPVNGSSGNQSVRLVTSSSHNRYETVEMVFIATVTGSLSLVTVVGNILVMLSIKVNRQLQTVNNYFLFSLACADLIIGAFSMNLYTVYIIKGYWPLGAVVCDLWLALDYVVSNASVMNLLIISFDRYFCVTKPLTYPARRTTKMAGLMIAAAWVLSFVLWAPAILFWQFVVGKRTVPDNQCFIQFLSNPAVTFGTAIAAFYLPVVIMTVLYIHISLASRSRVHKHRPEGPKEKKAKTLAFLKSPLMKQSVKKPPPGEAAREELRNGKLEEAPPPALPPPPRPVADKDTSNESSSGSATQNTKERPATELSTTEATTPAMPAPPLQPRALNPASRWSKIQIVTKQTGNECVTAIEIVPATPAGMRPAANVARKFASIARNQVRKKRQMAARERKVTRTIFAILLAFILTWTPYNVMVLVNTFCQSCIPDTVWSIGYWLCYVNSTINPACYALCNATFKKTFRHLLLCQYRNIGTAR

How the values were obtained:
[1] = target: T1, rat M4 (Rattus norvegicus, UniProt P08485); conditions: read-out: rM4 PAM EC50; previously reported; cited from earlier work
[2] = test system: amphetamine-induced hyperlocomotion; conditions: rat; previously reported; cited from earlier work
[3] = TID; previously reported; cited from earlier work
[4] = dog; previously reported; cited from earlier work
[5] = previously reported; cited from earlier work
[6] = previously reported; cited from earlier work; remark: listed apart in the source
[7] = Binding in plasma, equilibrium dialysis; conditions: fraction unbound
[8] = Rat IV plasma:brain level (PBL) cassette; conditions: SD rat, 0.2 mg/kg IV, 0.25 h
[9] = Binding in brain homogenate, equilibrium dialysis; conditions: fraction unbound
[10] = Intrinsic clearance in liver microsomes (substrate depletion)
[11] = target: human M4 (hM4) (Homo sapiens, UniProt P08173); assay: Calcium mobilization assay, hM4/Gqi5-CHO cells, EC20 acetylcholine
[12] = test system: conditioned avoidance response; assay: Conditioned avoidance response (CAR); conditions: compound alone
[13] = Multi-species hepatocyte MetID; conditions: 10 µM parent, 4 h
[14] = target: T1, rat M4; assay: Calcium mobilization assay, CHO cells, EC20 acetylcholine
[15] = predicted from microsomal CLint

COc1ccc(CNC(=O)c2sc3nnc(C)c(C)c3c2N)cc1F
EC50 [1]: 0.027 µM | MED, AHL [2]: 10 mg/kg | Predicted human dose projection [3]: > 450 mg

Cc1nc2oc3c(NC4CC4)ncnc3c2c(C)c1Cl
EC50 [1]: 0.589 µM

Cc1nc(C)c2c(n1)sc1c(NCc3ccc(C(C)(C)O)cc3)nccc12
EC50 [1]: 0.042 µM | % F [4]: 25% | CLp [4]: 24 mL/min/kg

Cc1cc(C)c2c(n1)sc1c(N3CC4(COC4)C3)ncnc12
EC50 [1]: 0.299 µM | rat CLhep [5]: 63 mL/min/kg | human CLhep [6]: 18 mL/min/kg

COc1ccc(CNc2nccc3c2sc2nnc(C)c(C)c23)cc1F
human fu,plasma [7]: 0.006 | rat fu,plasma [7]: 0.006 | Kp,brain:plasma [8]: BLQ | Kp,uu,brain:plasma [8]: BLQ | rat fu,brain [9]: 0.007 | CLint, human ([10]; microsomes): 156 mL/min/kg | CLint, rat ([10]; microsomes): 699 mL/min/kg | CLhep, human [10, 15]: > 15 mL/min/kg and 19 mL/min/kg | CLhep, rat [10, 15]: > 56 mL/min/kg and 64 mL/min/kg | hM4 pEC50 [11]: 7.53 | %AChMax ([11]; normalized to 100 μM acetylcholine): 89 % AChMax

Cc1nc2n(c(=O)c1CCN1CCC(c3noc4cc(F)ccc34)CC1)CCCC2
effect on avoidance and escape responses [12]: disrupted avoidance responses while maintaining their escape response

Cc1nnc2sc3c(NCc4ccc(C(C)(O)CO)cc4)ncnc3c2c1C (stereo not drawn)
% Total Peak Area (MS) ([13]; human hepatocytes): 7.89% and 7.9% | % Total Peak Area (MS) ([13]; minipig hepatocytes): 14% | % Total Peak Area (MS) ([13]; monkey hepatocytes): 3.22% and 3.2% | EC50 [14]: 0.032 µM | EC50 ([11]; read-out: hM4 EC50, PAM, EC20 ACh): 0.069 µM
